# Literature values as cited in patent publication US8633313B2, “Heterocyclic compounds and their uses” (Amgen Inc., priority 2009, dated 2014).
# Chains of the proteins cited; added tags and fusions are not shown.
# UniProt P42338, whole entry, species assumed: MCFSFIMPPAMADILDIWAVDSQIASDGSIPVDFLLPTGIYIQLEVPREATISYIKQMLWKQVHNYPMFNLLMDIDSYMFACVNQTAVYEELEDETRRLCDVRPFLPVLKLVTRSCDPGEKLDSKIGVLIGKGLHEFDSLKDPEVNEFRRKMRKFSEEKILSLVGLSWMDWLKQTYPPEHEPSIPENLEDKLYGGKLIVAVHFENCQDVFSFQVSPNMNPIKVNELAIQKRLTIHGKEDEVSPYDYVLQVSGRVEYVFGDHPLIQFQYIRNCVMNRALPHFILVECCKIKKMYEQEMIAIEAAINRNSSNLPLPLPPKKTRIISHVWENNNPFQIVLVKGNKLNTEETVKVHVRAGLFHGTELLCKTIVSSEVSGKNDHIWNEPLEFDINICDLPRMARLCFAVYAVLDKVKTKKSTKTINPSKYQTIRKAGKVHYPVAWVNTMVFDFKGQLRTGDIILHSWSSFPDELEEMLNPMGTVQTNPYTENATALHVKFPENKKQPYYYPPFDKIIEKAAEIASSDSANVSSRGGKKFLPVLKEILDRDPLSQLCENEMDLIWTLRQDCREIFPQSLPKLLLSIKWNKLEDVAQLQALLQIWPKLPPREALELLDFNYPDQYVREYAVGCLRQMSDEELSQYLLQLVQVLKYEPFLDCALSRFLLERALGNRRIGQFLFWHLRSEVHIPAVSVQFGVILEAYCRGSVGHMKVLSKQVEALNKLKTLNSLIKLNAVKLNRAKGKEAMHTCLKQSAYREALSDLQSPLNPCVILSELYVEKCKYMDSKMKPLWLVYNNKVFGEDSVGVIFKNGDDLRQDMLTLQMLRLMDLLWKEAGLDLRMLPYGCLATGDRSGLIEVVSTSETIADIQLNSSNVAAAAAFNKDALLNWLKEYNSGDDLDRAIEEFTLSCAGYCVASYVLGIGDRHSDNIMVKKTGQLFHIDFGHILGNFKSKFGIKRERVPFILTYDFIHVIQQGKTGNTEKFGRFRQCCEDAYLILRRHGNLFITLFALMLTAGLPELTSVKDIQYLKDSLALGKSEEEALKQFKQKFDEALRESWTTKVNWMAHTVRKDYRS
# Target: p110β (Homo sapiens, UniProt P42338)
# Conditions: read-out: potency on beta; cited from earlier work
compound,measurement,value
Cc1cc(C(C)Nc2ccccc2)c2nc(N3CCOCC3)cc(=O)n2c1 (stereo not shown) [TGX-221],pIC50,8.15

# pIC50: −log10 of the molar value.
